In ChEMBL document CHEMBL4325854, “Synthetic small molecules as anti-biofilm agents in the struggle against antibiotic resistance” (Eur J Med Chem, 2019):

Biological target: Fucose-binding lectin PA-IIL (Pseudomonas aeruginosa (strain ATCC 15692 / DSM 22644 / CIP 104116 / JCM14847 / LMG 12228 / 1C / PRS 101 / PAO1)) (UniProt Q9HYN5)

`COc1ccc(/C=C/C(=O)NC[C@H]2O[C@H](OC)[C@@H](O)[C@@H](O)[C@@H]2O)cc1OC` gave a T1/2 of 8.8 min.
